Assay [1] deals with T1, Signal transducer and activator of transcription 5A (Homo sapiens) (UniProt P42229).
T1 sequence (whole entry): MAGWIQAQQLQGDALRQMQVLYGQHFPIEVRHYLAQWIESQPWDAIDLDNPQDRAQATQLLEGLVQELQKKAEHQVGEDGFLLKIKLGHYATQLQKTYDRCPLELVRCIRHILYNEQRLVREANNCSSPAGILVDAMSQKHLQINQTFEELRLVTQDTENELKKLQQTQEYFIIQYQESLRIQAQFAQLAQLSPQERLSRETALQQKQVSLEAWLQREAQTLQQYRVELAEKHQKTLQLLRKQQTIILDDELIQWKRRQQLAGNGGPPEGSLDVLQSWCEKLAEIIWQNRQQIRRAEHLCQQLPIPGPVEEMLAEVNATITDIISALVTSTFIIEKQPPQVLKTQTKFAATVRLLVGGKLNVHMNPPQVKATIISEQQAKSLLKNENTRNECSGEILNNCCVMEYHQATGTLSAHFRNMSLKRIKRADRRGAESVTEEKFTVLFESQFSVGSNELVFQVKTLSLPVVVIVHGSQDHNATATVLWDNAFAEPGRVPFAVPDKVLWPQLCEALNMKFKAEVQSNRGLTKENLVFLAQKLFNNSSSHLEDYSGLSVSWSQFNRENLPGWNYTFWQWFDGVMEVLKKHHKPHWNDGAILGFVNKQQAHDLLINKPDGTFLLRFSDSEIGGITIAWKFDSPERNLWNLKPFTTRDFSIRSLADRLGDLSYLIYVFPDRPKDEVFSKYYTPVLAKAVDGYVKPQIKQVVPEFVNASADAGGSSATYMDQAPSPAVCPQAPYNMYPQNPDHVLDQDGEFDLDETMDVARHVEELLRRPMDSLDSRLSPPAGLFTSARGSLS
Briefly: Inhibition of STAT5 phosphorylation in human MV4-11 cells assessed as reduction in STAT5 level at 1 uM measured for 6 hrs by Western blot analysis. Format: cell-based. Background: Immunoblotting shows a protein as a band on a membrane.

Assay [2] has as its target T1, Signal transducer and activator of transcription 5A (Homo sapiens). Briefly: Inhibition of STAT5 phosphorylation in human MV4-11 cells assessed as reduction in […] phosphorylation at Y694 residue at 0.2 uM measured for 6 hrs by Western blot analysis. It counts as cell-based.

In the case of `CN(CCCC#Cc1cccc2c1CN(C1CCC(=O)NC1=O)C2=O)C(=O)CCN(C(=O)[C@@H]1CCCN1C(=O)[C@@H](NC(=O)c1cc2cc(C(F)(F)P(=O)(O)O)ccc2s1)C(C)(C)C)c1ccc(-c2nccs2)cc1` (some centres not stated), the results for the inhibition in assay [1] and in assay [2] were over 95% and over 80%, respectively.

Source of the values: ChEMBL document CHEMBL5380794, “Discovery of a Potent and Selective STAT5 PROTAC Degrader with Strong Antitumor Activity In Vivo in Acute Myeloid Leukemia” (J Med Chem, 2023).
